Values quoted from earlier work, collected in US10150760B2, “Compounds for use in preparing heterocyclic triazole agonists of the APJ receptor” (AMGEN INC., priority 2016, dated 2018).

Conditions: cited from earlier work

Substance: Apelin-13
- plasma half-life: < 5 min
